Experimental findings from publication PMC11847841, “The development and evaluation of a tublysine-based antibody-drug conjugate with enhanced tumor therapeutic efficacy” (Frontiers in Pharmacology, 2025) are described below.

Data set [1] is described as follows: Repeated-dose toxicity study in SD rats. The class given is in vivo, SD rat. The following applies: Tub114-cys 8 mg/kg.
Data set [2] is described as follows: Repeated-dose toxicity study in cynomolgus monkeys. The class given is in vivo. Conditions: Q3W × 5.

On to `CCC(C)C(NC(=O)C(C)(C)N(C)C)C(=O)N(C)C(CC(OC(C)=O)c1nc(C(=O)NC(Cc2ccc(O)c(NC(=O)CCCNC(=O)C(CCCCNC(=O)COCCOCCOCCOCCOCCOCCOCCOCCOCCOC)NC(=O)CCCN3C(=O)CC(SCC(N)C(=O)O)C3=O)c2)CC(C)C(=O)O)cs1)C(C)C` (centres unmarked) [Tub114-cys], for which the Clinical chemistry entry was “Tub114-cys: increases in CREA and TG” in data set [1] (Q3W × 5); “Tub114-cys: increases in CREA and TG” in data set [2] (Tub114-cys 3 mg/kg). In addition, the Hematology result is “Tub114-cys: decrease in RET” in data set [1] (Q3W × 5); 3 mg/kg Tub114-cys: increases in NEUT and MONO in data set [2] (3 mg/kg Tub114-cys). Besides, the Dead/mortality entry in data set [1] (i.v. Q3W × 5, DX126-262 30, 100, 200 mg/kg) is “All animals survived at the end of study”.
